Results reported in patent US8309725B2 (priority 2007, dated 2012).

Chains of the proteins cited; added tags and fusions are not shown. Lines headed by an entry give the natural chain unless they say otherwise; changes in a name come on top.
UniProt P41145: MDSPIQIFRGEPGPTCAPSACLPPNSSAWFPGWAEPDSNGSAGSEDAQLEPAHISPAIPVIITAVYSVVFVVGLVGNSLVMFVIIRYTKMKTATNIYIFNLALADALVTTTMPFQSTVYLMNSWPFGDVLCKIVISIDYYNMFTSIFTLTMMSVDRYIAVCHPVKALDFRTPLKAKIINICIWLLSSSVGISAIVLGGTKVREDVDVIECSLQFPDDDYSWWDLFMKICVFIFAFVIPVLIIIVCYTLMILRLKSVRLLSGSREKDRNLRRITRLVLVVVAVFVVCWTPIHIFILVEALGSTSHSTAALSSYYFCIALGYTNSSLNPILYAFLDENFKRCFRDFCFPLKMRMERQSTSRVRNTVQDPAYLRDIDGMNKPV
UniProt P41144: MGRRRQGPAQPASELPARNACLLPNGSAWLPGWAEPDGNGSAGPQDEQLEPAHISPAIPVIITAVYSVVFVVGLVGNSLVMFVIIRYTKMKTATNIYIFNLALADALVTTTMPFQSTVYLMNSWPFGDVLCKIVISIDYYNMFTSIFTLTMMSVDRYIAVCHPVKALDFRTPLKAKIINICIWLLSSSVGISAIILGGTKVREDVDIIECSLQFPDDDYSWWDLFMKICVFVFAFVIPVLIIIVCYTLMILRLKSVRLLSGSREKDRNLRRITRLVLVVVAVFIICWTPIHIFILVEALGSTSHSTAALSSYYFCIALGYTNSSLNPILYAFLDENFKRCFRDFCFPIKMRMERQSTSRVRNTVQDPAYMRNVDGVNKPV
UniProt P35372, whole entry, looked up: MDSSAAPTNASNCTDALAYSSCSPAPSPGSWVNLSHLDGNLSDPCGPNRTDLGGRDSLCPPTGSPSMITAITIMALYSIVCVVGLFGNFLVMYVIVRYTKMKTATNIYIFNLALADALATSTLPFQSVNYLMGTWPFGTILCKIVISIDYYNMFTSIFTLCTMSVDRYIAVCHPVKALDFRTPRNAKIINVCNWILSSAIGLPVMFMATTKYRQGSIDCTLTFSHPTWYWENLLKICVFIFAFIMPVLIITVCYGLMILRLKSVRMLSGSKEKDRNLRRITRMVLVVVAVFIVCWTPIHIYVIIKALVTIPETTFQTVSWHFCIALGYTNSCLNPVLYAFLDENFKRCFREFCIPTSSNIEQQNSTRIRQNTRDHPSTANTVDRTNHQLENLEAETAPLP

Key:
[1] = in vivo model (analgesic activity, not further specified)
human κ opioid receptor = human κ opioid receptor (Homo sapiens, UniProt P41145); experiment: binding to human κ opiate receptor membranes (HEK-293 cells, [3H]-CI-977, SPA); conditions: read-out: affinity for the κ receptor (Ki), human κ opioid receptor membranes from HEK-293 cells
κ receptor = κ receptor (Cavia porcellus, UniProt P41144); conditions: read-out: affinity for the κ receptor (Ki ± SEM); guinea pig brain preparation, [3H]-U69.593, text of Example 30
male NMRI mice [2] = experiment: visceral inflammation pain model (colitis induced by mustard oil); assay type: in vivo, mouse; conditions: for peripheral analgesic action (conclusion of the visceral pain model): i.v.
human μ opioid receptor = human μ opioid receptor (Homo sapiens, UniProt P35372); experiment: binding to human μ opiate receptor membranes (CHO-K1 cells, [3H]-naloxone, SPA); conditions: read-out: affinity for the μ receptor (Ki), human μ opioid receptor membranes from CHO-K1 cells
male NMRI mice [3] = experiment: phenylquinone-induced writhing test on the mouse; conditions: for analgesic action (conclusion of the writhing test): i.v.
[4] = 10 mg/kg intravenously in PEG 200, phenylquinone i.p. after 10 minutes, mouse
[5] = 21.5 mg/kg i.v., 2 to 12 minutes after rectal mustard oil, mouse

Row | Compound | analgesic activity in an in vivo model [1] | analgesic action compared with the compound of the formula (4) [1] | Ki (human κ opioid receptor) | Ki (κ receptor) | analgesic effect in the spontaneous pain study (male NMRI mice [2]; 1.0 mg/kg, 3.16 mg/kg and 10 mg/kg i.v., mouse) | analgesic effect in the spontaneous pain study (male NMRI mice [2]; 10 mg/kg i.v., mouse) | peripheral analgesic action (conclusion of the visceral pain model) (male NMRI mice [2]; mouse) | Ki (human μ opioid receptor) | percentage inhibition of the writhing reactions (male NMRI mice [3]; 3.16 mg/kg intravenously in PEG 200, mouse) | percentage inhibition of the writhing reactions (male NMRI mice [3]; [4]) | percentage inhibition of the writhing reactions (male NMRI mice [3]; 21.5 mg/kg intravenously in PEG 200, mouse) | analgesic action (conclusion of the writhing test) (male NMRI mice [3]; mouse) | action in the spontaneous pain study (male NMRI mice [2]; [5]) | spontaneous visceral pain score (male NMRI mice [2]; [5]) | action in the models of the centrally mediated types of pain, allodynia and hyperalgesia (male NMRI mice [2]; 21.5 mg/kg i.v., von Frey filaments 1 mN and 16 mN, 20 to 40 minutes after mustard oil) | side effects (male NMRI mice [3]; 10 mg/kg intravenously, mouse)
1 | O=C(Cc1ccc(Cl)c(Cl)c1)N1CCNC2CCCC(N3CCC(O)C3)C21 (centres unmarked) | analgesic activity |  |  |  |  |  |  |  |  |  |  |  |  |  |  | 
2 | O=C(Cc1ccc(Cl)c(Cl)c1)N1CCNC2CCCC(N3CCCC3)C21 (centres unmarked) | analgesic activity | even better analgesic action |  |  |  |  |  |  |  |  |  |  |  |  |  | 
3 | 2-(3,4-dichlorophenyl)-1-{(4aRS,8SR,8aSR)-8-[(3SR)-3-hydroxypyrrolidin-1-yl]perhydroquinoxalin-1-yl}ethan-1-one and 2-(3,4-dichlorophenyl)-1-{(4aRS,8SR,8aSR)-8-[(3RS)-3-hydroxypyrrolidin-1-yl]perhydroquinoxalin-1-yl}ethan-1-one |  |  | 19 nM | 8.7 nM | showed an analgesic effect in the spontaneous pain study with the forms of administration with increasing dose | absence of pain was nearly achieved | good peripheral analgesic action | 4900 nM | 5% | 40% | 97% | analgesic action |  |  |  | 
4 | O=C(Cc1ccc(Cl)c(Cl)c1)N1CCN[C@@H]2CCC[C@H](N3CCCC3)[C@@H]21 (racemic) |  |  | 28 nM | 2.1 nM |  |  | good peripheral analgesic action | 2800 nM |  | about 9% |  | analgesic action | very good action | corresponded to that of the control group | no action | No noticeable side effects
